The data set deals with CYP1A2 (Homo sapiens, UniProt P05177). As to conditions: microsomes. Here is the method: The CYP reaction was initiated by adding a CYP probe substrate and incubating at 37° C. for 10-20 minutes, depending on the individual CYP isoform. The reaction was terminated with the addition of 400 μL ice-cold acetonitrile (ACN). […] Positive controls were performed in parallel using a known inhibitor of the individual CYP isoform. […] The samples were then transferred to 96-well plates and analyzed by LC-MS/MS (Appendix 1).

Chains of the proteins cited; added tags and fusions are not shown.
UniProt P05177, whole entry: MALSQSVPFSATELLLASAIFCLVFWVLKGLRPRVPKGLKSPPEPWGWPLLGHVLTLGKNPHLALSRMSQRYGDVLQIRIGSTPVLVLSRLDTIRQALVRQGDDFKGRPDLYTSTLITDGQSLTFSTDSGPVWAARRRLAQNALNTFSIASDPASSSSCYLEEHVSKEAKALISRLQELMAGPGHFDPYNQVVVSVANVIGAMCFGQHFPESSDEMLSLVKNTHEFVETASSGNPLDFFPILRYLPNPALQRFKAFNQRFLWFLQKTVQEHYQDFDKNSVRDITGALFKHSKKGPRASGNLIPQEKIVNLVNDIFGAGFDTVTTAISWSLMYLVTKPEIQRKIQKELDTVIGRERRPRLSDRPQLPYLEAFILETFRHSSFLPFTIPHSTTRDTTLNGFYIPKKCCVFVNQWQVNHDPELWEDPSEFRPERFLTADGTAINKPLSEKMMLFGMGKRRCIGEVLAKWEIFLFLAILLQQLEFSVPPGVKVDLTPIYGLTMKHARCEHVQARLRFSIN

As for `O=c1cc(-c2ccccc2)oc2c1ccc1ccccc12` [α-Naphthoflavone], the “% Inhibition (Positive Control)” value came out at 92.1%.

For the origin of these results see patent US20250312469A1 (CANGET BIOTEKPHARMA, priority 2024, published 2025).
